According to patent publication US12419855B2, “Compositions comprising cannabinoid ions that are dissolved in glycerol” (Natural Extraction Systems, LLC, priority 2019, dated 2025):

System: psychoactive effect
Experiment: Psychoactive effects after oral consumption
Conditions: adult human; 10 milligrams orally in a formulation prepared according to Example 5; self-reported

Q: Which psychoactive effect does the source give for `CCCCCc1cc(O)c2c(c1)OC(C)(C)C1CCC(C)=CC21` (stereo not shown) [tetrahydrocannabinol anion, 6,6,9-trimethyl-3-pentyl-6a,7,8,10a-tetrahydro-6H-benzo[c]chromen-1-oxide] here?
A: Its psychoactive effect is “no marked psychoactive effect”.
